# Tested on: lung cancer cells (A549)
# Experiment: Cell cycle analysis by PI staining / flow cytometry, with combination index
# Type: cell-based, human
# Conditions: A549, 48 hours, 100 μM
# Description: To measure the inviability of cancer cells quantitatively, the cell cycle thereof was analyzed through flow cytometry as follows, in accordance with the method given in the document [See Kim, Y. H. et al., Expression of the murine homologue of the cell cycle control protein […] in T lymphocytes.
# After adding ribonuclease (2.5 μg/ml) and propidium iodide (50 μg/ml) together with 500 μl of PBS, the cells were left for 30 minutes in the dark at room temperature, followed by analyzing cell cycle within 1 hour using FACScan flow cytometer (Becton Dickinson Co, Heidelberg, Germany).
# Combination index (CI) mathematically expresses the cytotoxicity on cancer cells or growth inhibition of cancer cells through relative comparison after treating drugs alone or in a combination. The CI is the quantitative concept introduced by Paul Talalay and Ting-Chao Chou and was calculated using CalcuSyn software. The effect of combination treatment according to the values of CI was defined as follows.
smiles,measurement,setting,value
Cc1ccc(NC(=O)c2ccc(CN3CCN(C)CC3)cc2)cc1Nc1nccc(-c2cccnc2)n1 [Imatinib],S,Table 5,10.7
same,S,Table 6,10.7
